What was measured:
Carbonic anhydrase 9 = Carbonic anhydrase 9 (Homo sapiens, UniProt Q16790); test: Inhibition of human recombinant CA9 after 6 hrs by stopped flow CO2 hydration assay
Carbonic anhydrase 12 = Carbonic anhydrase 12 (Homo sapiens, UniProt O43570); test: Inhibition of human recombinant CA12 after 6 hrs by stopped flow CO2 hydration assay
Carbonic anhydrase 2 = Carbonic anhydrase 2 (Homo sapiens, UniProt P00918); test: Inhibition of human full-length cytosolic CA2 after 6 hrs by stopped flow CO2 hydration assay

Ki (Carbonic anhydrase 9)	Ki (Carbonic anhydrase 12)	Ki (Carbonic anhydrase 2)	Compound
> 500 µM	> 500 µM		O=c1ccc2ccccc2o1 [COUMARIN]
		> 100 µM	O=c1ccc2ccc(O)cc2o1 [UMBELLIFERONE]
